2 compounds from article PMC1968247, “Pre-clinical evaluation of a novel chloroethylating agent, Clomesone” (British Journal of Cancer, 1993) can be followed below.

Read-outs that look alike come from different tables or passages of the source.

The assay has as its system MAC 26 tumours. The conditions noted are these: for Tumour growth delay: MAC 26. As to the method:
Br. J. Cancer (1993), 67, 441 446 t? […] Bibby Clinical Oncology Unit, University of Bradford, West Yorkshire, BD7 JDP, UK. […] In vivo anti-tumour activity was examined against three transplantable adenocarcinomas of the mouse colon and in vivo bone marrow toxicity was assessed using a spleen colony forming unit assay. The pharmacokinetic behaviour of the drug in vivo and drug stability in vitro was analysed by gas chromatography with electron capture detection. […] Clinical responses to cytotoxic agents have been largely restricted to the haematological malignancies while the majority of human solid tumours have remained refractory to chemotherapy (Marsoni et al., 1987). […] However, their clinical usefulness has been limited by non-selective host toxicity, particularly myelosuppres- sion. The chloroethylnitrosoureas decompose spontaneously in aqueous solution to generate reactive intermediates that are capable of alkylating and carbamoylating nucleophilic targets (Cheng et al., 1972). Alkylation reactions consist of chloroethylations and hydroxyethylations of DNA (Tong et al., 1982). Chloroethylation of 06-guanine with subsequent cross-link formation is considered to be the most important cytotoxic reaction (Lown et al., 1978) while hydroxyethyla- tion reactions are thought to be responsible for their mutagenic and carcinogenic effects (Pelfrene et al., 1976; Swenson et al., 1979). […] In the search for other types of compound that would chloroethylate DNA, a series of 2-haloethylsulphonates was synthesised (Shealy et al., 1983). […] Recently, the NCI has introduced a new disease-orientated screening programme based on the assessment of the in vitro cytotoxicity of a panel of cell lines representing the common clinical forms of human cancers using a colorimetric assay (Boyd, 1989). […] One reason for this discrepancy is that the in vitro tests ignore the potential role played by the pharmacokinetic behaviour and bioavailability of a drug in determining tumour responses in vivo. […] It has been used extensively as part of the pre-clinical evaluation of new anti-cancer agents within the Screening and Pharmacology Group of the EORTC (Bibby et al., 1988b). The feasibility of performing minimal toxicity studies in conjunction with anti-tumour studies has been described (Bibby et al., 1988b). […] Correspondence: A.M. Matthew. Received 6 December 1991; and in revised form 13 October 1992. Br. J. Cancer (1993), 67, 441-446 '?" Macmillan Press Ltd., 1993 442 A.M. MATIHEW et al. ethylating agents with improved therapeutic indices. The assessment of stem cell survival has been recommended to study irreversible cytotoxic bone marrow injury (Schofield, 1986) and this can be performed readily in mice using a spleen colony forming unit assay.

As to `CS(=O)(=O)CS(=O)(=O)OCCCl` [Clomesone, 2-chloroethyl(methylsulphonyl)methanesulphonate], the Tumour growth delay result is, setting by setting: (150 mg kg-1 ip) “Toxic”; (200 mg kg-1 ip) “Toxic”. Also, the “Activity against MAC 26 tumour (in words)” value (relatively nitrosourea-resistant solid sc tumour, 100 mg kg-1 ip not different from control (P> 0.1)) is “inactive”.

For the compound `CN(C)S(=O)(=O)CCNC(=O)N(CCCl)N=O` [TCNU, 1-(2-chloroethyl)-3-[2-(dimethylaminosulphonyl)ethyl]-I -nitro-sourea, reference compound], the Tumour growth delay result (50 mg kg-1 ip) is “Toxic”.
